Measurements from ChEMBL document CHEMBL3751796, “Structure-Based Discovery of Novel Cyclophilin A Inhibitors for the Treatment of Hepatitis C Virus Infections” (J Med Chem, 2015).

Protein sequences, listed by entry. Tags and fused reporters are not part of them.
UniProt P62937, whole entry, looked up: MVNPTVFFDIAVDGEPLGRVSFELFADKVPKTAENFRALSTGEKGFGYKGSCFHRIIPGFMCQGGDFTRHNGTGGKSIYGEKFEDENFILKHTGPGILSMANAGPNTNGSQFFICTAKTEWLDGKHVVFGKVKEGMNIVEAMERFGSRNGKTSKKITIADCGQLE

Biological target: Peptidyl-prolyl cis-trans isomerase A (Homo sapiens, UniProt P62937)
Assay: Potency index, ratio of CsA IC50 to compound IC50 for Cyclophilin A (unknown origin)

COc1cc(C(C(=O)NC2CCCCC2)N(C(=O)Cc2c[nH]c3ccccc23)c2ccc(C(C)C)cc2)cc(OC)c1OC (stereo unspecified)
Ratio IC50: 1.3
